Article PMC3989841 (Journal of nuclear medicine : official publication, Society …, 2013)
Read-outs that look alike come from different tables or passages of the source.

Conditions: mean ± SD of 8 subjects with stage 3–4 chronic kidney disease

Clearance, mean ± SD: 171 mL/min/1.73 m^2
Clearance, mean ± SD (listed as OIH): 171 ± 66 mL/min/1.73 m^2
SMILES: O=C(O)CNC(=O)c1ccccc1[131I] [^131I-OIH, ^131I-o-iodohippuran]
